Experimental findings from patent US20190247357A1, “NANOPARTICLE FORMULATIONS AND METHODS OF MAKING AND USING THEREOF” (Abraxis BioScience, LLC, priority 2016, published 2019) are described below.

Bounds are passed on as bounds.

Data set [1] is described as follows: Particle size of antibody-conjugated nab-paclitaxel nanoparticles. It is filed as physicochemical. As for the experimental part:
During this procedure, the solution was protected from light. While still protected from light, the linker/antibody solution was reacted on a shaker for 2 hours.
The conjugation solution was removed from 4° C. […] The particle size was measured.
The paclitaxel content was measured using RP-HPLC. The paclitaxel concentration was then adjusted according to the required concentration. The particle size and paclitaxel concentration for the final formulation was measured. […] The resulting solution was then transferred to vials and stored at −80° C.
The Eppendorf tubes were centrifuged to pellet the nanoparticles, and the supernatant was decanted. The pellets were washed three times with PBS. 500 μL of PBS was added to each tube and the pellet was resuspended by sonication (5 seconds and repeated until the particles were resuspended). Particle size was determined using Dynamic Light Scattering.
The particle sizes of the samples were measured.
The paclitaxel content was measured by RP-HPLC and was then adjusted to 5.33 mg/mL. The particle size was measured by DLS. […] The resulting solution was then transferred to vials and stored at −80° C.

Data set [2] relates to CAL-51. The experiment in a line: Anti-proliferation assay (Cell Titer-Glo). Particulars: 3 days of treatment. It is filed as cell-based. As for the experimental part:
(§1) Anti-proliferation assay. The growth inhibitory activity in vitro was evaluated using an anti-proliferative assay. 40 μL/well of cells was plated into 384-well plates (Corning, 3712) at their optimized densities and allowed to incubate overnight at 37° C. and 5% CO2 The following day, cells were treated with test trastuzumab-nanoparticle formulations and placed back into the incubator at 37° C. and 5% CO2 for 3 days. After 3 days of treatment, cell viability was assessed via the addition of 20 μL/well of Cell Titer-Glo (Promega, G7573). After 30 minutes of incubation, plates were read on the Perkin Elmer Envision for luminescence detection.
On the technique in general: ATP-based viability assays read luminescence as a measure of living cells.

In data set [3] the test system is MDA-MB-468. The experiment in a line: Anti-proliferation assay (Cell Titer-Glo). It is filed as cell-based. Particulars: 3 days of treatment. The procedure: as §1
The subject of data set [4] is SK-BR-3. The experiment in a line: Anti-proliferation assay (Cell Titer-Glo). It is filed as cell-based. Particulars: 3 days of treatment. The procedure: as §1
The test system of data set [5] is BT-474. The experiment in a line: Anti-proliferation assay (Cell Titer-Glo). In kind it is cell-based. Particulars: 3 days of treatment. As for the experimental part: as §1
The mark [6] stands for this setting: final formulation, washed particles resuspended in HSA solution.
The mark [7] stands for this setting: conjugation solution after overnight incubation at 4° C.

With 10:1 cetuximab, the average particle size in data set [1] (setting [6]) was 147 nm.
10:1 thiolation linker:HSA: the average particle size was 159 nm in data set [1] (setting [7]) and 159.8 nm in data set [1] (setting [6]).
Taken in the same sequence, the figures for 40:1 thiolation linker:HSA were 734.1 nm and 196.4 nm.
Take 30:1 thiolation linker:HSA: the average particle size in data set [1] (setting [7]) is listed as 215.9 nm; in data set [1] (setting [6]), 175.8 nm.
20:1 thiolation linker:HSA: the figures for the average particle size in data set [1] (setting [7]) and in data set [1] (setting [6]) were 166 nm and 171.5 nm, respectively.
For the substance 5:1 cetuximab, the average particle size in data set [1] (setting [6]) came out at 149 nm.
One may read the GI50 as the concentration that inhibits growth by half. A high value points to lower sensitivity of the cells. One may read the IC50 as the concentration that gives 50% inhibition. Consider trastuzumab: anti-HER2 antibody, for which the GI50 in data set [2], in data set [3], in data set [4] and in data set [5] was greater than 13.5 µM each time. In addition, the IC50 in data set [2], in data set [3], in data set [4] and in data set [5] was greater than 13.5 µM throughout.
